Results reported in PubChem BioAssay AID435022 (Sanford-Burnham Center for Chemical Genomics, 2010).
The list shows a part of the results, in another mix than the full data. Calls of active or inactive are those of the source. Rule as the data show it: active = inhibition above about 35%; inactive = the rest.

test: inhibitors of PMA/ionomycin-induced NF-kB reporter, 697 cells, primary screen, B-cell NF-kB inhibitor project, cell-based, luminescence, uHTS (AID 435022); conditions: 697 B-cell NF-kB luciferase reporter, 16 h, at 4 µM, stronger effect = higher value

| Structure (SMILES) | inhibition |
| --- | --- |
| CCC(=O)N(c1ccccc1)C1(COC)CCN(CCn2nnn(CC)c2=O)CC1 | inactive: 11.2% |
| CCC(=O)N(c1ccccc1)C1(COC)CCN(CCc2cccs2)CC1 | inactive: -5.04% |
